We go through 73 compounds from PubChem BioAssay AID540263 (National Center for Advancing Translational Sciences (NCATS), 2011).

Sequences of proteins named here, by UniProt entry; tags and fusion partners are left off.
UniProt Q14974, whole entry, looked up: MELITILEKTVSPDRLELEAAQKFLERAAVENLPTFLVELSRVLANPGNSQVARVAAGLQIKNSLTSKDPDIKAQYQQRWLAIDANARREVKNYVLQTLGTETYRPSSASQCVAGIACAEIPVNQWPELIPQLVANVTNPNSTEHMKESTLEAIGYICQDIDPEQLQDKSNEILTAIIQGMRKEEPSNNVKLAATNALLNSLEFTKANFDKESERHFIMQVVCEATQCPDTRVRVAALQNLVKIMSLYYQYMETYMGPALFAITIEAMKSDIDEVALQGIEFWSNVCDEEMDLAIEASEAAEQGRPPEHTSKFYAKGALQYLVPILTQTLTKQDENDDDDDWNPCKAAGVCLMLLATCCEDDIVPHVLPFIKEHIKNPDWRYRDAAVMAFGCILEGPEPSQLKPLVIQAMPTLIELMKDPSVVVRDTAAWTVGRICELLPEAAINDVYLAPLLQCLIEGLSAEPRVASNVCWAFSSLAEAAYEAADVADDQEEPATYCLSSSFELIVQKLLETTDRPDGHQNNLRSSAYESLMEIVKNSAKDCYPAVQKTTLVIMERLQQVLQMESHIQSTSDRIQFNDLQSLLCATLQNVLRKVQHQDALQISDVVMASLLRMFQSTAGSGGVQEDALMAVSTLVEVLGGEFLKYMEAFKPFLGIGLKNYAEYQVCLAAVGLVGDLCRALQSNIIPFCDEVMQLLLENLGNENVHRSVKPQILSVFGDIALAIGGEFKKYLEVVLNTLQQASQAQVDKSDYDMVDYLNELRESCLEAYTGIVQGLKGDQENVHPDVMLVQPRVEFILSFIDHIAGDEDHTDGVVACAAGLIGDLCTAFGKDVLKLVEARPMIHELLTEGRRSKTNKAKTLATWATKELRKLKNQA

Hit rate of the full screen: of about 340,000 compounds, about 100 (0.029%) were called active. Another 8% or so got no clear call; they are omitted. Calls follow the shape of the full dose curve. For the sample, actives were picked, then their nearest neighbours and some compounds at random. Where a SMILES comes first, the peptide text is derived from it. [ ]: non-standard residue; d: D form. ξ: configuration not given here. Ac5c = NC1(C(=O)O)CCCC1; ξS = NC(CO)C(=O)O
Potency is read from the fitted curve at half-maximal effect; tags tell the direction and shape of the fitted curve.

This assay has as its target Importin subunit beta-1 (Homo sapiens) (UniProt Q14974). Put plainly: qHTS Assay for Inhibitors of Rango (Ran-regulated importin-beta cargo) - Importin beta complex formation. Also: nearly all actives have a fitted effect of over 15% in size.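 As to inhibition of complex formation: 0% = DMSO wells and 100% = buffer wells lacking importin beta.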 The conditions noted are these: Rango CFP/YFP FRET sensor + importin beta, 45 min; series mostly up to 92.2 µM; inhibition of complex formation: at the top concentration. The source says:
NIH Molecular Libraries Probe Production Centers Network [MLPCN] NIH Chemical Genomics Center [NCGC] MLPCN Grant: R03 MH090808-01A1 Assay Submitter (PI): Petr Kalab NCGC Assay Overview: The small GTPase Ran regulates transport of macromolecules between the nucleus and the cytoplasm (nuclear transport) and has important functions in mitotic spindle assembly, nuclear envelope (NE) formation and nuclear pore complex (NPC) assembly. RanGTP gradient is thought to promote spindle assembly by providing a spatial clue to microtubule nucleation and Aurora A activation. Because the localized release and binding of importin alpha cargo relays this spatial clue to SAFs, inhibitors of the Rango - importin beta complex can then be used in further understanding their role in cell cycle specifically in mitosis progression. […] Activation of Aurora A has been linked to different types of cancer and a number of Aurora kinase inhibitors are being developed as potential canter therapeutics therefore, identified inhibitors of this complex could be developed into potential anti-mitotic probes for cancer treatment. Purified recombinant proteins Rango and importin beta were provided by the assay submitter. The assay used a fluorescence resonance energy transfer (FRET) Rango biosensor that contains the IBB of human snurportin 1 flanked by yellow fluorescent protein (EYFP) at the amino terminus and cerulean CFP10 at the carboxy terminus. […] Inhibitors will therefore be identified based on the ability to interfere with the FRET signal decrease. DMSO treated and no importin beta (buffer only) wells were used as negative and positive controls respectively. FRET readings were obtained at two time points. FRET reading prior to importin beta addition (pre-read) were used flag potential compound interference; FRET reading after importin beta addition (post-read) were used to identify inhibitors using the FRET ratio parameter.
NCGC Assay Protocol Summary: Two and a half uL/well of Rango-buffer solution (50 nM Rango, 1x PBS, 1mM DTT, 0.02% Tween-20, 0.1% BSA final concentrations) was dispensed into 1536-well assay plates (Greiner, solid black medium-binding plates) with Aurora Discovery BioRAPTR Flying Reagent Dispenser (FRD; Beckton-Dickenson). Compound solution (23 nL) was transferred to the assay plate using Kalypsys pin tool equipped with a 1536-pin tool and incubated at room temperature for 5 min followed by a FRET pre-read using the PerkinElmer Envision plate reader. Two and a half uL/well of Importin beta - buffer solution (0.125 microM importin beta, 1x PBS, 1mM DTT, 0.02% Tween-20, 0.1% BSA final concentrations) were then added and incubated at room temperature giving a final reaction volume of 5uL. After 45min FRET post-read was obtained via the Envision plate reader using the same optics and settings as the pre-read (CFP/YFP optimized dual optical module D450/D505; excitation mirror CFP 430/24 nm; and emission filters CFP 486/10 nm and YFP 530/10 nm).
A general note: In qHTS, concentration-response curves come from the screen itself.
With `COc1ccc(CCN2CC(C(=O)OCC(=O)NCc3ccccc3Cl)CC2=O)cc1OC` (stereo not drawn), the “inhibition of complex formation” value was 5.68% (inactive).
Take `COc1cc2c(cc1OC)C1C(=O)c3cc(OS(C)(=O)=O)c(OC)cc3C1N(C)C2=O` (stereo not drawn): the “inhibition of complex formation” value was -0.982% (inactive).
Turning to `O=C(Cc1ccc(NC(=O)C2CCCN(C(=O)C3CCCCC3)C2)cc1)Nc1cccc(C(=O)N2CCCCC2)c1` (stereo not drawn), the “inhibition of complex formation” value is -3.72% (inactive).
For the compound `CCOC(=O)[C@H]1[C@H]2COc3ccc(Br)cc3[C@@H]2N2C(=O)CN(C)C(=O)[C@@]12C`, the “inhibition of complex formation” value is -0.78% (inactive).
Turning to `O=C(NCCc1ccccc1)c1cccc(NC(=O)c2ccccc2)c1`, the “inhibition of complex formation” value is 0.414% (inactive).
For `CC(=O)CSc1nc(CCc2ccccc2)c(C#N)c(=O)[nH]1`, the “inhibition of complex formation” value was -0.166% (inactive).
As to `COC1C(CO)OC(n2cnc3c(=S)nc(N)[nH]c32)C1O` (stereo not drawn), the “inhibition of complex formation” value is 5.99% (inactive).
With `COc1ccc(Cn2cc(CN3CCS(=O)(=O)N(Cc4ccc(-c5cccc(Cl)c5)cc4)C(C)C3=O)nn2)cc1` (stereo not drawn), the “inhibition of complex formation” value is 0.684% (inactive).
In the case of `CCN1C[C@@H]2[C@@H]3C(=O)N(Cc4ccccc4)C(=O)[C@@H]3[C@](C)(C1=O)N2C(=O)c1ccc(C(C)(C)C)cc1`, the “inhibition of complex formation” value was -0.393% (inactive).
On the same count and under the same terms, the value for `Cc1cc2c(cc1C)NC1(C[C@H]3CCC(=O)N4CC[C@@H](C1)[C@@H]34)C(=NC(C)(C)CC(C)(C)C)N2` (stereo partly drawn) was -5.93% (inactive); that for `O=C(OCCOc1ccccc1F)c1cc(S(=O)(=O)N2CCOCC2)ccc1F` was -0.785% (inactive); that for `O=C1/C(=C\c2ccc([N+](=O)[O-])cc2)CS(=O)(=O)C/C1=C/c1ccc([N+](=O)[O-])cc1` was -1.37% (inactive).
On to `FC(F)(F)c1ccc(-c2cccc3c2C2CC3CCN2Cc2ccccc2)cc1` (stereo not drawn), for which the “inhibition of complex formation” value is -0.476% (inactive).
With `CCOc1ccc(S(=O)(=O)N2CCN(C(=O)c3oc4ccccc4c3C)CC2)cc1`, the “inhibition of complex formation” value was 0.762% (inactive).
The same measure, in the same setting: the same measure for `Cc1nc(N)nc(Cl)c1CCC1OCCO1`: -0.198% (inactive).
Turning to `Cn1c(=O)[nH]c2c(c(C(=O)O)nn2C)c1=O`, the “inhibition of complex formation” value was 2.54% (inactive).
Still for that read-out and setting: the value for `O=C(CC(=O)c1cccnc1)c1ccccc1` was -1.07% (inactive); that for `O=C(O)C(c1cccs1)C1(O)CCCCC1` (stereo not drawn) was 2.58% (inactive).
The same measure, in the same setting: the value for `CC(=NNC(=O)c1ccncc1)c1ccc(Cl)c(Cl)c1` was 0.952% (inactive); that for `Cc1ccc2c(O)c(Cc3ccccc3)c(=O)[nH]c2n1` was -0.948% (inactive); that for `COc1ccc(OC)c(Cc2cnc3nc(N)nc(N)c3c2C)c1` was 1.02% (inactive).
The same measure, in the same setting: the value for `O=C1NC(=O)C(CCc2ccccc2)(c2ccccc2)N1` (stereo not drawn) was -0.134% (inactive); that for `O=S(=O)(Nc1ccc2ccccc2c1)N1CCCCC1` was 1.21% (inactive).
On to `NC(=O)C1(Nc2ccc([N+](=O)[O-])cc2)CCCC1`, for which the “inhibition of complex formation” value is 1.99% (inactive).
For `COc1cccc(-n2nc(C(=O)N3CCN(Cc4ccccc4)CC3)c3ccccc3c2=O)c1`, the “inhibition of complex formation” value was 0.18% (inactive).
Take `CCOC(=O)N1CCN(Cc2nc3ccc([N+](=O)[O-])cc3c(=O)n2-c2cccc(OC)c2)CC1`: the Potency is 65.1 µM (active).
For `CCOC(=O)N1CCN(Cc2nc3cc(NC(C)=O)ccc3n2C)CC1`, the “inhibition of complex formation” value is 1.49% (inactive).
The same measure, in the same setting: the value for `C=CCn1c(=O)n(C)c2c(=O)n(C)c(=O)n(C)c21` was 0.323% (inactive); that for `CCc1nnc(NC(=O)c2cc(S(=O)(=O)N3CCN(CC)CC3)ccc2Cl)s1` was -0.0496% (inactive).
Regarding `O=[N+]([O-])c1ccc(N2CCOCC2)cc1`, the “inhibition of complex formation” value is -0.532% (inactive).
With `COC1=CC(=O)OC(c2ccc(OC)cc2)C1` (stereo not drawn), the “inhibition of complex formation” value was 0.94% (inactive).
`C[C@@H]1NS(=O)(=O)c2cc(Cl)ccc2O[C@@H]1c1ccccc1`: the “inhibition of complex formation” value was 0.256% (inactive).
As for `Cc1onc(-c2c(F)cccc2Cl)c1C(=O)Nc1cccc(S(=O)(=O)N2CCCCC2)c1`, the “inhibition of complex formation” value is -3.64% (inactive).
For the compound `COc1cc(O)c2c(=O)c3c(O)c(O)ccc3oc2c1OC`, the “inhibition of complex formation” value was 2.1% (inactive).
On the same count and under the same terms, the value for `COc1ccccc1C(=O)c1ccccc1C(=O)c1ccccc1` was 0.498% (inactive); that for `CCc1c(Nc2ccccc2Cl)nc(N)[nH]c1=O` was -2.61% (inactive); that for `O=C1NCC(c2ccccc2)(c2ccccc2)C(=O)N1` was -0.926% (inactive).
Regarding `CC(=O)OC1CCC2(C)C(=CCC3C4CC(=O)N(O)C(=O)C4(C)CCC32)C1` (stereo not drawn), the “inhibition of complex formation” value is 8.37% (inactive).
For `O=c1[nH]c(=S)[nH]c(O)c1/C=C1\C=Nc2ccccc21`, the “inhibition of complex formation” value is -4.21% (inactive).
Regarding `CN1CCC(N(C)C(=O)c2ccc(Cl)c(S(=O)(=O)Nc3ccc(Cl)cc3)c2)CC1`, the “inhibition of complex formation” value was 0.197% (inactive).
Turning to `O=C1CC(C(=O)O)NC(=S)N1` (stereo not drawn), the “inhibition of complex formation” value is -2.32% (inactive).
Consider `Cc1ccc(C)c(S(=O)(=O)N(C)c2ccc(OC(=O)C3CCN(C(=O)c4ccc(F)cc4)CC3)cc2)c1`, for which the “inhibition of complex formation” value was 0.0057% (inactive).
Consider `COc1ccc(C(=O)Nc2cccc(/C=C(/CCC(=O)O)c3nc4ccccc4s3)c2)cc1`, for which the “inhibition of complex formation” value is 1.46% (inactive).
On the same count and under the same terms, the value for `O=C1COc2c1ccc(O)c2O` was 7.6% (inactive); that for `COc1ccc(-c2nnc(-c3ccc4ccccc4c3)o2)cc1` was 0.838% (inactive); that for `CC(=O)c1cccc(-c2ccc(CN3C(CC(C)C)C(=O)N(Cc4cn(CC5CCCCC5)nn4)CCS3(=O)=O)cc2)c1` (stereo not drawn) was 0.492% (inactive).
With `Cn1c(N)cc(=O)n(C)c1=S`, the “inhibition of complex formation” value is 1.95% (inactive).
On the same count and under the same terms, the value for `Nc1ccc2[nH]c(=S)sc2c1` was 1.37% (inactive); that for `Cc1nc(N)sc1-c1ccccc1` was 0.85% (inactive); that for `COc1ccc(Nc2ccc3ccccc3c2)cc1` was -0.857% (inactive).
`O=C(CCC(=O)N1CCN(S(=O)(=O)c2ccc(Cl)cc2)CC1)NCc1cccc(C(F)(F)F)c1`: the “inhibition of complex formation” value is -4.66% (inactive).
As to `CCOC(=O)C(CO)NC(=O)C1(NC(C)=O)CCCC1` (stereo not drawn) (Ac-[Ac5c]-[ξS]-OEt), the “inhibition of complex formation” value was 3.58% (inactive).
Still for that read-out and setting: the same measure for `CCN1CCC(O)(/C=C/c2ccc(C)cc2)C(C(=O)/C=C/c2ccc(C)cc2)C1` (stereo not drawn): 9.28% (inactive); for `COC(=O)Cc1c(-c2[nH]c3ccccc3c2CC(=O)OC)[nH]c2ccccc12`: -5.91% (inactive).
Regarding `CC1(C)C(=O)CCC2(C)C1=CCC1C2C(=O)CC2(C)C1CCC2(O)C(=O)CO` (stereo not drawn), the “inhibition of complex formation” value was 2.32% (inactive).
For `C#CCOCCOCCOCCNc1nc(N2CCOCC2)nc(N2CCN(C(=O)[C@H](Cc3ccc(O)cc3)n3cc(CCO)nn3)CC2)n1`, the “inhibition of complex formation” value was -0.365% (inactive).
For `CSc1ncnc2c1ncn2CC(=O)C1CCC2C3CCC4=CC(=O)CCC4(C)C3CCC12C` (stereo not drawn), the “inhibition of complex formation” value is -1.96% (inactive).
As to `COc1ccc(/C=C/C(=O)OCC(=O)N2CCN(S(=O)(=O)c3ccc(C)cc3C)CC2)cc1OC`, the “inhibition of complex formation” value was -0.829% (inactive).
For the compound `CN(C)c1ccc(CSc2ccccc2)cc1`, the “inhibition of complex formation” value is -3.62% (inactive).
Consider `Cc1cccc(CC2(O)C(=O)Nc3ccccc32)n1` (stereo not drawn), for which the “inhibition of complex formation” value was -4.17% (inactive).
Consider `O=C(Cc1ccc(NC(=O)C2CCCN(C(=O)CCc3ccccc3)C2)cc1)Nc1ccc(C(=O)N2CCOCC2)cc1` (stereo not drawn), for which the “inhibition of complex formation” value was 5.08% (inactive).
For `O=C(Cc1ccc(S(=O)(=O)N2CCOCC2)s1)Nc1ccc(Br)c(C(F)(F)F)c1`, the “inhibition of complex formation” value is -0.992% (inactive).
Take `CN(CCc1ccccc1)C(=O)c1cccc(NC(=O)Cc2cccc(NC(=O)C3CCCN(C(=O)CCc4ccccc4)C3)c2)c1` (stereo not drawn): the “inhibition of complex formation” value was -1.7% (inactive).
For `COc1ccc(CNCCCNCc2ccc(OC)c(OC)c2)cc1OC`, the “inhibition of complex formation” value is 3.08% (inactive).
On to `CCOc1cc(C=NNC(=O)CCCC(=O)NN=Cc2ccc(O)c(OCC)c2)ccc1O`, for which the “inhibition of complex formation” value was 0.872% (inactive).
The same measure, in the same setting: the same measure for `COc1ccc(Br)cc1/C=N/Nc1ccc(S(=O)(=O)Nc2ccccc2C(=O)O)cc1[N+](=O)[O-]`: 7.77% (inactive); for `O=C(NN=Cc1ccccc1O)NN=Cc1ccccc1O`: -2.35% (inactive); for `O=C(NNC(=O)c1ccccc1O)c1ccccc1O`: 3.01% (inactive).
As for `CCCN(CCC)S(=O)(=O)c1cc2c(cc1Br)CCN2C(=O)CC`, the “inhibition of complex formation” value is 7.53% (inactive).
Regarding `CCOc1ccccc1NC(=S)C(=C([O-])c1ccc2c(c1)OCCO2)[n+]1ccc(CC)cc1`, the “inhibition of complex formation” value is -0.299% (inactive).
As to `COc1ccc(N=C2C=CC(=O)O2)cc1`, the “inhibition of complex formation” value was -0.507% (inactive).
For `Cc1cccc(C=CC(=O)c2ccc(Cl)cc2)c1`, the “inhibition of complex formation” value is -1% (inactive).
With `COc1ccc(CCNC(=O)COc2cc(C)cc3oc(=O)c(C)c(C)c23)cc1OC`, the “inhibition of complex formation” value was 4.97% (inactive).
